# OPERA 2.9 data: melting point values

Data: OPERA 2.9 data sets, kmansouri/OPERA on GitHub.

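OPERA's authors assembled the values from existing databases and did not measure them anew. The files give a single number for a compound and property, which may rest on several reports. Conditions of the individual experiments are not part of the data. Where a salt, mixture or single isomer is drawn, the source does not say that exactly this form was tested. Unmarked limits or estimates from the upstream databases cannot be ruled out.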

Melting points are in °C.

structure (SMILES),MP (°C)
CN(C)CCC=C1c2ccccc2C=Cc2ccccc21,217
O=C(c1ccccc1O)N1CCCCC1,134
C=COCCOCCOCCOC=C,-12.6
COC(=O)c1ccc2[nH]ncc2c1,194
CC1(c2cccc(Cl)c2)NC(=O)NC1=O (centres undefined),201
CCCCCCCCCCCCCC[N+](C)(C)[O-],127
CC(C)(C)OC(=O)C(C)(C)ON=C(C(=O)O)c1csc(NC(c2ccccc2)(c2ccccc2)c2ccccc2)n1,165
C[C@@H]1C[C@H]2[C@@H]3C[C@H](F)C4=CC(=O)C=C[C@]4(C)[C@@]3(F)[C@@H](O)C[C@]2(C)[C@@]1(O)C(=O)S,232.5
CCCCCC(CO)CCC (centres undefined),-108.3
COc1ccccc1Nc1n[nH]c(=S)s1,183
O=C1CC(c2ccccc2)N1 (centres undefined),108
C1=C\CCCCCC/1,-13.9
O=C1CC2(CCCCC2)C(=O)O1,56
NC(=O)CC(N)=S,104
COc1ccccc1/C=C/C(=O)O,184.5
CC(Oc1ccc(C(C)(C)C)cc1)C(=O)O (centres undefined),94
O=C(O)CNS(=O)(=O)c1cccc(C(F)(F)F)c1,81
OC1(c2ccc(-c3ccc(C4(O)c5ccccc5-c5ccccc54)cc3)cc2)c2ccccc2-c2ccccc21,315.9
O=C(O)c1cc(N2CCOCC2)ccn1,258
CCOC(=O)C1=NN(c2ccccc2)C(=O)C1,183
O=C(O)c1ccc(F)cc1I,145
CCc1nc2c(C)nc(C)cc2n1-c1ccc(CCNC(=O)NS(=O)(=O)c2ccc(C)cc2)cc1,136
C[N+](C)(C)CCOP(=O)([O-])OC[C@H](O)CO,142
O=C1CCCCCCCCCCCCCCC1,67.4
Br.CN[C@@H](C)c1cccc(OC)c1,155.9
Cc1ccc(N2CC(C(=O)O)CC2=O)cc1 (centres undefined),185
COc1ccc(-c2nc(C=O)cs2)cc1,98
O=[N+]([O-])c1ccc(C=NN(c2ccccc2)P(=O)(N2CC2)N2CC2)cc1,150
Nc1cc(Br)ccc1N1CCOCC1,154
Clc1cc(Oc2ccccc2)cc(Cl)c1Cl,54
CC(C)CCCCCCCOC(=O)C=CC(=O)OCCCCCCCC(C)C,-87
CCCCOCCOCCOCc1cc2c(cc1CCC)OCO2,-2.5
CCC(NC(N)=O)C(=O)O (centres undefined),175
Cn1nc(Br)c(=O)n(C)c1=O,96
CN(C)C[C@H](O)[C@@H](O)[C@H](O)[C@H](O)CO (stereo in doubt),90.3
Cc1cc(N)ccc1NS(C)(=O)=O,142
Cc1ccc(S(=O)(=O)O)cc1.OCC1CN(Cc2ccccc2)CC=C1c1ccc(F)cc1 (centres undefined),164
CCCC1(CCC)NC(=O)NC1=O,206
Cn1c(-c2ccco2)n[nH]c1=S,180
CCCCCCCCC=CCCCCCCCC(=O)OCCCCCCCCCCCCCC,15
O=C1OCCN1c1ccc(O)cc1,178
CCCCCCCCCCCCCCCCCC(=O)OCCOC(C)=O,35
COc1ncnc2nccnc12,193

Extract of 7 entries:

structure (SMILES)	MP (°C)
C[C@@H]1C[C@H]2[C@@H]3C[C@H](F)C4=CC(=O)C=C[C@]4(C)[C@@]3(F)[C@@H](O)C[C@]2(C)[C@@]1(O)C(=O)S	232.5
CC(C)CCCCCCCOC(=O)C=CC(=O)OCCCCCCCC(C)C	-87
CN(C)C[C@H](O)[C@@H](O)[C@H](O)[C@H](O)CO (stereo in doubt)	90.3
Cn1c(-c2ccco2)n[nH]c1=S	180
Cc1cc(N)ccc1NS(C)(=O)=O	142
CCCCCCCCCCCCCCCCCC(=O)OCCOC(C)=O	35
Cc1ccc(S(=O)(=O)O)cc1.OCC1CN(Cc2ccccc2)CC=C1c1ccc(F)cc1 (centres undefined)	164